# Results from PubChem BioAssay AID374 (University of Pittsburgh Molecular Library Screening Center, 2006).
# By UniProt entry, the sequences of proteins in these tests, tags left out.
# UniProt P28562, whole entry: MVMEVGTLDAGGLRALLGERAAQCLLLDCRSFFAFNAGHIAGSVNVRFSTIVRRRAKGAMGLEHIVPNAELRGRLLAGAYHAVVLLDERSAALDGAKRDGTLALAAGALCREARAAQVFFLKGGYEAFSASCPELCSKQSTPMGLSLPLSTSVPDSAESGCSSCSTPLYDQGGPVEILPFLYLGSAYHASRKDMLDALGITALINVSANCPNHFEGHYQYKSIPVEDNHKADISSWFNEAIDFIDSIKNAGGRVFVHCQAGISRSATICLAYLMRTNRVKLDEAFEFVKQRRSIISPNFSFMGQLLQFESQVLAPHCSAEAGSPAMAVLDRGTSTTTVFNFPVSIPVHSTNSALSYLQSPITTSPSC
# Only a part is listed here, and it is no random draw. The source made the active and inactive calls.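 How the source made its calls: active means inhibition above about 50% (limit read from the data); inconclusive means inhibition over screen mean plus 3 SD, below that limit; inactive means the rest.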
# Biological target: Dual specificity protein phosphatase 1 (Homo sapiens) (UniProt P28562)
# Assay: MKP-1 phosphatase inhibitors, primary screen, biochemical, in vitro (AID 374);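 further: 0% = DMSO max control wells and 100% = wells with enzyme stopped by NaOH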
# Conditions: recombinant MKP-1, OMFP hydrolysis fluorescence; active compounds read high;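 compounds tested at a single concentration somewhere between 10 and 100 µM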
row,Structure (SMILES),inhibition
1,Cc1ccc(NP(C)(=O)Oc2ccccc2)c(C)c1 (stereo not drawn),inactive: 5.6%
2,COc1ccccc1OP(C)(=O)Nc1ccc(C)cc1 (stereo not drawn),inactive: -9.78%
3,CP(=S)(Nn1cnnc1)Oc1ccccc1 (stereo not drawn),inactive: -9.58%
4,CCOP(C)(=S)SCC(=O)NC(C)C(=O)O (stereo not drawn),inactive: 5.24%
5,CP(=O)(NC(=O)Nc1ccccc1)Oc1ccccc1 (stereo not drawn),inactive: 7.26%
6,Cc1nc2ccc3ccccc3c2s1.O=[N+]([O-])c1cc([N+](=O)[O-])c(O)c([N+](=O)[O-])c1,inactive: -11.3%
7,Cc1ccc(C)c(NP(C)(=O)Oc2ccccc2)c1 (stereo not drawn),inactive: 4.58%
8,CP(=O)(Nc1ccccc1F)Oc1ccccc1 (stereo not drawn),inactive: 4.76%
9,CN(C)CCOC(=O)C(O)(c1ccccc1)C1CCCCC1 (stereo not drawn),inactive: -5.56%
10,CP(=O)(Nc1ccc2c(c1)OCCO2)Oc1ccccc1 (stereo not drawn),inactive: -10.9%
11,Cc1ccccc1NP(C)(=O)Nc1ccccc1C,inactive: 11.1%
12,CCOP(C)(=S)SCC(=O)NC(C)(CC)C(=O)O (stereo not drawn),inactive: -23.8%
13,CCN(CC)CC(O)COC(=O)C(O)(c1ccccc1)C1CCCCC1 (stereo not drawn),inactive: -5.61%
14,COc1ccccc1OP(C)(=O)Nc1c(C)n(C)n(-c2ccccc2)c1=O (stereo not drawn),inactive: -21.9%
15,CP(=O)(Oc1ccccc1)N1CCOC1=O (stereo not drawn),inactive: 1.93%
16,Cc1nc2ccc3ccccc3c2o1.O=[N+]([O-])c1cc([N+](=O)[O-])c(O)c([N+](=O)[O-])c1,inactive: 26.6%
17,COc1ccccc1OP(C)(=O)Nc1ccc(C)c(C)c1 (stereo not drawn),inactive: 29.5%
18,CP(=O)(Nc1ccccn1)Oc1ccccc1 (stereo not drawn),inactive: 2.76%
